pKd: −log10 of the molar value.
Legend:
[1] = target: free H3K9me3 tail peptide; assay: ITC; 1.8 mM hHP1β injected into 60 μM H3 peptides, nucleosomes or oligonucleosomal arrays; 25°C; 10 mM triethanolamine pH 7.5, 150 mM NaCl, 0.1 mM EDTA; apparent; one set of identical sites
[2] = target: biotinylated H3K9me3 peptide (histone H3 aa 1-20) (UniProt P84233); assay: SPR; biotinylated ligands on streptavidin (SA) chips, hHP1β proteins injected; 298 K; 10 mM triethanolamine pH 7.5, 150 mM NaCl, 0.1 mM EDTA, 1 mM DTT, 0.005% Tween-20; steady-state analysis; apparent

Amino acid sequences for entries named in this document (tags omitted).
UniProt P83916, whole entry: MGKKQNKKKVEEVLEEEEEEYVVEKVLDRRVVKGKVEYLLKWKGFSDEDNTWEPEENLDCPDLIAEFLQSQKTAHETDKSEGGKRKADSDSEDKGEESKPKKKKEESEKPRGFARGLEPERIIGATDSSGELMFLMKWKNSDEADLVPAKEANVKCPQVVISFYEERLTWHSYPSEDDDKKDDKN

Substance | pKd [1] | pKd [2]
human HP1β wild type (hHP1β WT) (from UniProt P83916 1-185) (natural protein) | 5.48 | –
hHP1β chromo domain (CD) (domain or fragment) | 5.48 | 5.20

— PMC4838890, “Dynamic and flexible H3K9me3 bridging via HP1β dimerization establishes a plastic state of condensed chromatin” (Nature Communications, 2016)
